Values quoted from earlier work as cited in publication PMC5773580, “A synthetic combinatorial approach to disabling deviant Hedgehog signaling” (Scientific Reports, 2018).

Target: T1, HDAC10 (Homo sapiens, UniProt Q969S8)
T1 sequence (Q969S8 1-669): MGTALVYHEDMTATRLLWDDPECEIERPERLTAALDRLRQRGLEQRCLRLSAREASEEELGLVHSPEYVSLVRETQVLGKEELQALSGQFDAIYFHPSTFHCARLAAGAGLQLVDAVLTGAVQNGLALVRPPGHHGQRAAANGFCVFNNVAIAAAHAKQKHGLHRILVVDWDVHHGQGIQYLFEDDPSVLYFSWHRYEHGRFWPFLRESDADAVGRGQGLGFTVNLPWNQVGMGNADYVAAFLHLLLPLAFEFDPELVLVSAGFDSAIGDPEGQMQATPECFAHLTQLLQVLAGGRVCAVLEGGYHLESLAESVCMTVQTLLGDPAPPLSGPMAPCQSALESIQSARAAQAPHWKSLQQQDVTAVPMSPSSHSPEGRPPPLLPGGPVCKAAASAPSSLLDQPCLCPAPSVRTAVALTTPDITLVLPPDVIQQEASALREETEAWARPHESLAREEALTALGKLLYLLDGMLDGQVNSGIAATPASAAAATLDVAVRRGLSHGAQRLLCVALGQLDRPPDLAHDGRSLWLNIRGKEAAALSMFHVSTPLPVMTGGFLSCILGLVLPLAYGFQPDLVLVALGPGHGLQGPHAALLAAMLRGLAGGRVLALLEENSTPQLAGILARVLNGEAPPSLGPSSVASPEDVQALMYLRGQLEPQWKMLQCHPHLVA
Settings: read-out: IC50 (HDAC10); reference dataset, same assay platform (BPS) ref 23; cited from earlier work

O=C(CCCCCCC(=O)Nc1ccccc1)NO [SAHA, suberanilohydroxamic acid]
IC50: 58 nM
